# Measured values: US20250129048A1, “MELANOCORTIN 4 RECEPTOR ANTAGONISTS AND USES THEREOF” (Pfizer Inc., priority 2021, published 2025)
# Chains of the proteins cited; added tags and fusions are not shown.
# UniProt P32245, whole entry: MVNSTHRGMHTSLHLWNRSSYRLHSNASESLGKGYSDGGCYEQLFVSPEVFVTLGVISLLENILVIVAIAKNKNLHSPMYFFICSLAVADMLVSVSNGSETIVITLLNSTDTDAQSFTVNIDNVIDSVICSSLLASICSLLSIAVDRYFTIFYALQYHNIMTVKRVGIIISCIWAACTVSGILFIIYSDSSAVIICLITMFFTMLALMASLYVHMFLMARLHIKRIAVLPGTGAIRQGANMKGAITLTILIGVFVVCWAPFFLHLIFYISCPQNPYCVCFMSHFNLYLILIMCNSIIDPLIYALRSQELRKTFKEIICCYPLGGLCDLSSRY
# Legend:
# [1] = biological target: hMC4R (Homo sapiens (Human), UniProt P32245); test: In vitro binding affinity assay using hMC4R (radioligand competition binding, CHO cell membranes); conditions: competition with [125I]-(Nle4, D-Phe7)-α-MSH 0.5 nM; Ki from IC50 by Cheng-Prusoff; read-out: Ki (nM) geometric mean
# Method: The binding affinity of test compounds at the α-melanocyte-stimulating hormone receptor (hMC4R) was assessed using a radioligand competition binding assay. Recombinant Chinese hamster ovaries (CHO) cells stably expressing hMC4R (PerkinElmer #ES-191-C) were used for competitive binding. hMC4R membranes were grown in Dulbecco's Modified Essential Medium and Ham's F-12 Medium (DMEM/F12), 10% heat inactivated fetal bovine serum (FBS), 0.4 mg/mL Geneticin and 2 mM L-glutamine. Cell membranes were bulked and frozen until the assay was performed.
# Compounds were solubilized in 100% dimethyl sulfoxide (DMSO) to a concentration of 30 mM. A 10-point intermediate dilution series using half log dilutions was created in 100% DMSO with a top concentration of 0.03 mM. […] The exact concentration of radioligand used for each experiment was determined by liquid scintillation counting and adjusted if necessary. […]
# The raw data (expressed as counts per minute) were analyzed using ActivityBase (IDBS Data Management Software). […] Equilibrium dissociation constant for inhibitor of ligand and receptor interaction (Ki) values were then calculated from the IC50 values using the Cheng-Prusoff equation: Ki=IC50/(1+([L]/Kd)), where [L] is the concentration of the radioligand used in the experiment and Kd is the affinity of the radioligand (determined in separate saturation experiments).
# [2] = biological target: human Melanocortin-4 receptor (MC4R) (Homo sapiens (Human), UniProt P32245); test: Functional in vitro MC4R antagonist potency assay (intracellular cAMP, HTRF, CHO cells); type: cell-based; conditions: cAMP after EC80 agonist stimulation (200 nM αMSH); Kb from IC50 by Leff-Dougall equation; read-out: Kb (nM) Antagonist geometric mean
# Method: The functional in vitro antagonist potency for test compounds was determined by monitoring intracellular cyclic adenosine monophosphate (cAMP) levels in Chinese hamster ovary (CHO—) cells stably expressing the human Melanocortin-4 receptor (MC4R). Following agonist activation, human MC4R associates with the G-protein complex causing the Ga subunit to exchange bound GDP for GTP, followed by dissociation of the Gα-GTP complex. The activated Ga subunit can couple to downstream effectors to regulate the levels of second messengers or cAMP within the cell. Thereby, determination of intracellular cAMP levels allows for pharmacological characterization. Intracellular cAMP levels are quantitated using a homogenous assay utilizing the Homogeneous Time-Resolved Fluorescence (HTRF) technology from CisBio. The method is a competitive immunoassay between native cAMP produced by cells and the cAMP labelled with the acceptor dye, d2. […]
# In-house generated CHO cells stably expressing the Gs-coupled human MC4R receptor were plated in 384-well assay plates (Corning, Cat No. 3570) in 50 μL/well of Ham's F-12 containing 10% heat inactivated FBS, 1× penicillin/streptomycin, 1 mM Glutamax (Invitrogen) at a density of 2,500 cells per well and incubated at 37° C. […] Intracellular cAMP levels were quantified as per Cisbio's protocol (5 μL of D2 and then 5 μL Cryptate, incubated for 1-2 hours at room temperature). […]
SMILES,Ki [1] [nM],Kb [2] [nM]
"COc1cc([C@@H](C)C(=O)N2CC[C@H](Nc3ccc(-c4nc(C(F)F)n(C)n4)c(C)n3)C2)c(F)cn1 [Example 7, (2R)-1-[(3S)-3-({5-[5-(difluoromethyl)-1-methyl-1H-1,2,4-triazol-3-yl]-6-methylpyridin-2-yl}amino)pyrrolidin-1-yl]-2-(5-fluoro-2-methoxypyridin-4-yl)propan-1-one]",0.77,3.3
"[2H]C([2H])([2H])n1nc(-c2ccc(N[C@H]3CCN(C(=O)[C@H](C)c4cc(OC)ncc4F)C3)nc2C)nc1C(F)F [Example 17, (2R)-1-[(3S)-3-({5-[5-(difluoromethyl)-1-(^2H3)methyl-1H-1,2,4-triazol-3-yl]-6-methylpyridin-2-yl}amino)pyrrolidin-1-yl]-2-(5-fluoro-2-methoxypyridin-4-yl)propan-1-one]",–,2
